Data taken from patent US10975080B2, “Compounds and compositions for inhibiting the activity of SHP2” (NOVARTIS AG, priority 2015, dated 2021).

Amino acid sequences for entries named in this document (tags omitted).
UniProt Q06124, whole entry: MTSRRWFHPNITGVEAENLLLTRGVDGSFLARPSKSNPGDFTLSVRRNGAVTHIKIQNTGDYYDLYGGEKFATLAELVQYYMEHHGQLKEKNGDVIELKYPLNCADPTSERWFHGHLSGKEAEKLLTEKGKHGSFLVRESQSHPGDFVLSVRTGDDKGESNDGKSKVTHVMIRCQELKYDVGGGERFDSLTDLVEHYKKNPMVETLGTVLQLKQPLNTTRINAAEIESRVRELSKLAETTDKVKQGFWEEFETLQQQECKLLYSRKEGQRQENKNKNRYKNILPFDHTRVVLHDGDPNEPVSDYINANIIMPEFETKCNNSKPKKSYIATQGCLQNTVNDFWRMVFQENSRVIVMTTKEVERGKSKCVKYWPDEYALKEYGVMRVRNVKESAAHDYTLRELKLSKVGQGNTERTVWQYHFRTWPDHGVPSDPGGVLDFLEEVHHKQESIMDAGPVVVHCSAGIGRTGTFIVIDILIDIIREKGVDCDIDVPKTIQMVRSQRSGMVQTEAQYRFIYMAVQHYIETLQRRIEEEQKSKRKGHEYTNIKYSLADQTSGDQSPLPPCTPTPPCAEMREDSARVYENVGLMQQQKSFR

Target: SHP2 (Homo sapiens (Human), UniProt Q06124)
Experiment: SHP2 Allosteric Inhibition Assay
Assay type: biochemical
Text: SHP2 Allosteric Inhibition Assay
SHP2 is allosterically activated through binding of bis-tyrosyl-phosphorylated peptides to its Src Homology 2 (SH2) domains. The latter activation step leads to the release of the auto-inhibitory interface of SHP2, which in turn renders the SHP2 protein tyrosine phosphatase (PTP) active and available for substrate recognition and reaction catalysis. The catalytic activity of SHP2 was monitored using the surrogate substrate DiFMUP in a prompt fluorescence assay format.
After 30-60 minutes incubation at 25° C., the surrogate substrate DiFMUP (Invitrogen, cat #D6567) was added to the reaction and incubated at 25° C. for 30 minutes. […] The inhibitor dose response curves were analyzed using normalized IC50 regression curve fitting with control based normalization.

C[C@@H]1OCC2(CCN(c3nc4[nH]nc(-c5ccnc(Cl)c5Cl)c4c(=O)n3C)CC2)[C@@H]1N [Example 1, 6-((3S,4S)-4-amino-3-methyl-2-oxa-8-azaspiro[4.5]decan-8-yl)-3-(2,3-dichloropyridin-4-yl)-5-methyl-1,5-dihydro-4H-pyrazolo[3,4-d]pyrimidin-4-one]
IC50: 28 nM
